Protein sequences, listed by entry. Tags and fused reporters are not part of them.
UniProt P11511, whole entry: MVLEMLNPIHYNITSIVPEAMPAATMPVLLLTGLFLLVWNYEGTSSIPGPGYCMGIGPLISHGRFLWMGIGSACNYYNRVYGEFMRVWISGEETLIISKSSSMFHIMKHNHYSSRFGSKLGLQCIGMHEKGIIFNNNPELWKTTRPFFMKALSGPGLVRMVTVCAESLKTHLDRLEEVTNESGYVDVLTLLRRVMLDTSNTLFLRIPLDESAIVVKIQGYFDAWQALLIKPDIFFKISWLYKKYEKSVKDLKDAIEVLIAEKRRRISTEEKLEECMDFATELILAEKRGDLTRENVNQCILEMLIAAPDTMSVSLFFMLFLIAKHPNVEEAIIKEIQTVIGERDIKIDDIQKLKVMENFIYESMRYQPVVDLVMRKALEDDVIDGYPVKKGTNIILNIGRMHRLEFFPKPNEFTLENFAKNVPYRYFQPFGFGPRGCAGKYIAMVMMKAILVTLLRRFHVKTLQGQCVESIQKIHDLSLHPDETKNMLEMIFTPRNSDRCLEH

In US8361996B2, “Imidazolyl substituted steroidal and indan-1-one derivatives” (Council of Scientific and Industrial Research, priority 2005, dated 2013):

Target: aromatase (CYP19) (Homo sapiens, UniProt P11511)
Conditions: human placental microsomes and [1β,2β-3H] testosterone

Compound: COc1cc(/C=C2\C[C@H]3[C@@H]4CCC5=CC(=O)CC[C@]5(C)[C@H]4CC[C@]3(C)C2=O)ccc1OCCCn1ccnc1
- aromatase inhibitory activity (in words): significant aromatase inhibitory activity
